From PubChem BioAssay AID1004 (SRMLSC, 2008)
The list shows a part of the results, in another mix than the full data. The source made the active and inactive calls.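 Rule for the calls: active = viability at 10 µM of 29.74% or lower, 3 SD below the compound median; inactive = the rest.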

Assay: viability of HCT116 lacking mutant beta-catenin – cell-based, DP diverse set, validation, pilot screen (AID 1004)
Details: HCT116 (mutant beta-catenin deleted) viability, CellTiter-Glo, 60 h; at 10 µM; hits give low values

With `CN(C(=O)Cc1ccc(Cl)c(Cl)c1)[C@H]1CCCC[C@@H]1N1CCCC1` as the compound, how does the viability read?
Its viability is inactive: 90%.
